Results from PMC2222956.

Target: PKA-C target

Substance: PKI (Protein Kinase Inhibitor) (from UniProt P61925 1-76) (natural protein)
- inhibition of membrane currents, whole-cell patch clamp on P. falciparum-infected erythrocytes, 1 μg/ml PKI in the pipette, maximum after 10–15 minutes; not reversed by 5 mM cAMP: 59.2%
